These are literature values, as cited in patent US20170298446A1, “BIOMARKERS OF BRUTON TYROSINE KINASE INHIBITOR RESISTANCE” (OHIO STATE INNOVATION FOUNDATION, priority 2014, published 2017).

Amino acid sequences for entries named in this document (tags omitted). A change or cut given only in a name is not applied to a line headed by its entry.
UniProt Q06187: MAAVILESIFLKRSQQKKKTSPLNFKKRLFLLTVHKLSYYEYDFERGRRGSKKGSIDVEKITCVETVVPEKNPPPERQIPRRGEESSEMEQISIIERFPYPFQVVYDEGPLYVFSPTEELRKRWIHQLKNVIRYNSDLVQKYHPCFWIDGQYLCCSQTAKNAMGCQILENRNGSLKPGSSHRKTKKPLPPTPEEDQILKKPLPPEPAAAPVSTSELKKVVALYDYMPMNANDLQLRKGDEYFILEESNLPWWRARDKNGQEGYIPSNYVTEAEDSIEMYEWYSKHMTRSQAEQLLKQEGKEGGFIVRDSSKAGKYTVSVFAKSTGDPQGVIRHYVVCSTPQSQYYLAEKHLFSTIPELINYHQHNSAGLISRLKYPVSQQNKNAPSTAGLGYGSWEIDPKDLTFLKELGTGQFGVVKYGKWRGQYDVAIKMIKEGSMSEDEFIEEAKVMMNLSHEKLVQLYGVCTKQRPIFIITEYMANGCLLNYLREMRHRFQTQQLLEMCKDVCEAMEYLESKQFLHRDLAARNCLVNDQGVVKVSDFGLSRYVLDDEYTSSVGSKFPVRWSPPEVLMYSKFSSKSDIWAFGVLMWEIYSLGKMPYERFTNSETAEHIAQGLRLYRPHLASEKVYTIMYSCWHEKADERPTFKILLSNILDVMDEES

SMILES strings stand for the structures. Like-named read-outs stand apart in the source and are kept apart here.

Data set [1] has as its target T1, BTK (Homo sapiens, UniProt Q06187). Particulars: biochemical kinase / enzymology assays; read-out: IC50 against BTK.
Data set [2] addresses T1, BTK. Particulars: cellular assays; read-out: IC50 towards BTK in cellular assays.

As usually defined, the IC50 is the concentration that inhibits the measured activity by half. Turning to `C=CC(=O)Nc1cccc(Nc2nc(Nc3ccc(Oc4ccnc(C(=O)NC)c4)cc3)ncc2F)c1` [CNX-774, 4-(4-((4-((3-acrylamidophenyl)amino)-5-fluoropyrimidin-2-yl)amino)phenoxy)-N-methylpicolinamide], the IC50 on BTK [1] was less than 1 nM; at BTK [2], 1 to 10 nM.
